# AlphaSeq binding of Ab-14 light chain variants to a spike HR2 peptide

Values reported by Engelhart et al. 2022, doi:10.1038/s41597-022-01779-4 (FLAb copy).

Target: peptide PDVDLGDISGINAS, taken from heptad repeat 2 (HR2) of SARS-CoV-2 spike.

Each scFv is VH, three GGGGS repeats, VL, as in the parent Ab-14, and differs from it in the CDRs of the light chain only.
VH: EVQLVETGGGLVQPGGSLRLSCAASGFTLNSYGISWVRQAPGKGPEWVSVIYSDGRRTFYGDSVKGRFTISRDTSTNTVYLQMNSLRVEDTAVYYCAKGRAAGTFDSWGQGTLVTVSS
VL: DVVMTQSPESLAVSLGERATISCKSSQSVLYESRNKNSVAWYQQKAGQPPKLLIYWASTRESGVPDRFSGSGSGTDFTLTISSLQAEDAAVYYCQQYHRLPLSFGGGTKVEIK

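The starting antibody came from a phage panning campaign against this peptide. In library AAYL50, one, two or three CDR residues were substituted; doubles and triples were drawn at random. Affinity was read by AlphaSeq, a pooled yeast mating assay with surface-displayed partners. Binding brings cells together so that they mate, and sequencing counts the barcode pairs among the diploids. Each replicate has its own calibration line, from reference interactions of the BCL2 family. Each pool was mated in three replicate cultures.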

Positions count from residue 1 of the parent VL; V29A puts A in place of V.
Values are log10 of the apparent Kd in nM; lower means stronger binding.
Averages over replicates are reported, and they cover detected replicates only.
A pair that was not seen in that replicate is written "ND"; this usually means weak binding, but a binder can also be missed.
Background: pairings of library AAYL50 with three empty control strains gave a value in 18% of cases (median 4.19, 5th percentile 2.99). Values in that range, when seen in few replicates, are hard to tell from nonspecific mating. For each scFv, signals with the empty controls are counted beside the result, with their mean in brackets.
In this assay the parent's reference entry averaged 0.65; its copy inside this library read 1.68.

changes,"replicates, log10 nM","mean, log10 nM",signal with controls
V29A/A40N/W56H,4.78 / ND / 3.96,4.37,2/9 (4.04)
S33C/S62D/H98M,3.01 / 4.02 / 4.11,3.71,1/9 (4.52)
N35M/Q96K/L100K,2.24 / 1.94 / 2.62,2.26,4/9 (4.12)
N37T/V39A/R60I,4.31 / ND / 3.24,3.78,4/9 (4.68)
Q27F/Y97D/S103E,ND / 4.49 / 5.35,4.92,3/9 (3.91)
R60C/R99I,3.97 / 4.98 / ND,4.47,4/9 (4.36)
S25A/N37S/W56C,1.54 / 1.57 / 1.59,1.57,2/9 (4.78)
Q27I/S33M/T59H,1.68 / 1.79 / 2.05,1.84,2/9 (3.90)
R34L/N37R/E61L,1.39 / 1.16 / 1.29,1.28,0/9
K24H/N35Y/Q95C,2.43 / 2.25 / 2.58,2.42,0/9
R34G/R99I/S103A,3.72 / 2.86 / 3.00,3.19,4/9 (4.79)
E32W/S33Q/R99H,1.91 / 1.97 / 1.74,1.87,0/9
Q27V/L30S/S103G,0.27 / 0.70 / 0.46,0.48,0/9
Q27L/Y97S,2.06 / 2.17 / 2.30,2.18,1/9 (3.83)
K24Q/S26R/L30V,1.82 / 1.94 / 1.82,1.86,1/9 (3.80)
N37H/Q96N/H98R,0.86 / 1.22 / 0.71,0.93,1/9 (3.73)
N35W/K36F/N37E,4.52 / ND / ND,4.52,0/9
S33E/T59G/S103W,3.86 / 2.25 / 3.23,3.11,1/9 (4.54)
W56F/T59L/P101D,3.08 / 2.50 / 3.49,3.03,0/9
K24T/S28H/Q96S,ND / ND / 4.83,4.83,3/9 (4.01)
S58P,ND / ND / ND,ND,1/9 (3.38)
K24N/V29Q,1.58 / 1.95 / 1.76,1.76,3/9 (4.17)
K24H/A40S/L102D,ND / ND / ND,ND,1/9 (3.53)
N35I/L102E,2.40 / 2.37 / 3.11,2.63,1/9 (2.82)
K24S/N37E/H98P,ND / ND / ND,ND,0/9
S38E/W56T/Y97S,ND / 4.69 / ND,4.69,6/9 (4.46)
K36V/V39S/E61C,ND / ND / ND,ND,1/9 (5.29)
L30G/A57T/Y97V,ND / 5.17 / ND,5.17,1/9 (3.95)
S28F/R60N/Q95A,ND / ND / ND,ND,1/9 (2.10)
K24H/K36H/S103Q,2.25 / 3.12 / 2.23,2.54,0/9
S26L/Y31L/R34W,ND / ND / ND,ND,0/9
Y31K/K36F/S38D,0.92 / 1.00 / 0.95,0.96,5/9 (4.89)

Excerpt, the first 3 entries:

changes	replicates, log10 nM	mean, log10 nM	signal with controls
V29A/A40N/W56H	4.78 / ND / 3.96	4.37	2/9 (4.04)
S33C/S62D/H98M	3.01 / 4.02 / 4.11	3.71	1/9 (4.52)
N35M/Q96K/L100K	2.24 / 1.94 / 2.62	2.26	4/9 (4.12)